This note sets out measurements from PMC8126888 (RSC Medicinal Chemistry, 2020).

The test has as its system Leishmania infantum MHOM/MA(BE)/67/ITMAP263 intracellular amastigotes. The conditions noted are these: initial hits, Fig. 2.
In the case of `CCCCCOc1cc(C)c(C)cc1S(=O)(=O)NC1CCCC1` [Compound 8], the Selectivity is above 100.

The compound `COc1cc(S(=O)(=O)N(Cc2ccccc2)Cc2ccccc2)c(OC)cc1C` [Compound 6] displayed a Selectivity above 100.

Consider `CCCCCOc1cc(C)c(Cl)cc1S(=O)(=O)NCc1cccs1` [Compound 7], for which the Selectivity was above 100.
